In patent US9663523B2, “BET protein-inhibiting 5-aryltriazoleazepines” (BAYER PHARMA AKTIENGESELLSCHAFT, priority 2012, dated 2017):

Target: BRD4(1) (amino acids 44-168) (Homo sapiens (Human), UniProt O60885)
Assay: BRD4 binding strength, TR-FRET (HTRF) assay of BRD4(1) / acetylated histone H4 peptide interaction
Conditions: inhibition of BRD4(1)/Ac-H4 peptide interaction
Source text: To assess the BRD4 binding strength of the compounds according to the invention, the ability thereof to inhibit the interaction between BRD4 and acetylated histone H4 in a dose-dependent manner was quantified. For this purpose, a time-resolved fluorescence resonance energy transfer (TR-FRET) assay was used, which measures the binding between N-terminally His6-tagged BRD4(1) (amino acids 44-168) and a synthetic acetylated histone H4 (Ac-H4) peptide with sequence […]-biotin. The recombinant BRD4 protein produced in-house according to Filippakopoulos et al., Cell, 2012, 149:214-231 was expressed in E. coli and purified by means of (Ni-NTA) affinity and (Sephadex G-75) size exclusion chromatography. The Ac-H4 peptide can be purchased, for example, from Biosyntan (Berlin, Germany). […] For this purpose, 100-fold concentrated solutions in DMSO were prepared by serial dilutions (1:3.4) of a 2 mM stock solution into a clear, 384-well microtitre plate (Greiner Bio-One, Frickenhausen, Germany). From this, 50 nl were transferred into a black test plate (Greiner Bio-One, Frickenhausen, Germany). […] The formation of BRD4/Ac-H4 complexes was determined by the measurement of the resonance energy transfer from the streptavidin-Eu cryptate to the anti-6His-XL665 antibody present in the reaction. […]

IC50: 0.2 µM
SMILES: Cc1nnc2n1-c1ccccc1C(c1ccc(Cl)cc1)=CC2CC(=O)OC(C)(C)C (stereo in doubt) [Example 9, tert-butyl (−)-[(4R)-6-(4-chlorophenyl)-1-methyl-4H-[1,2,4]triazolo[4,3-a][1]benzazepin-4-yl]acetate]
